# Data: ChEMBL document CHEMBL1909046, “DrugMatrix in vitro pharmacology data”
# Amino acid sequences for entries named in this document (tags omitted). A change or cut given only in a name is not applied to a line headed by its entry.
# UniProt Q16539, whole entry: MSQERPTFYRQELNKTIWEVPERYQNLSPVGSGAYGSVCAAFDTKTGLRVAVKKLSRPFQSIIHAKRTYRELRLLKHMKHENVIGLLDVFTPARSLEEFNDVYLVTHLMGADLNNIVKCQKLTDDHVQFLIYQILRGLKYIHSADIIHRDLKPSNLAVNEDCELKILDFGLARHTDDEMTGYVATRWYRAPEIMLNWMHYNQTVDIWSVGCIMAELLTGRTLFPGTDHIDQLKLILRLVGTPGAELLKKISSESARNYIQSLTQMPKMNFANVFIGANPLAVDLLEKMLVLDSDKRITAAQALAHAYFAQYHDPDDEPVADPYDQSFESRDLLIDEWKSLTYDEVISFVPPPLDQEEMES
# UniProt P41595, whole entry: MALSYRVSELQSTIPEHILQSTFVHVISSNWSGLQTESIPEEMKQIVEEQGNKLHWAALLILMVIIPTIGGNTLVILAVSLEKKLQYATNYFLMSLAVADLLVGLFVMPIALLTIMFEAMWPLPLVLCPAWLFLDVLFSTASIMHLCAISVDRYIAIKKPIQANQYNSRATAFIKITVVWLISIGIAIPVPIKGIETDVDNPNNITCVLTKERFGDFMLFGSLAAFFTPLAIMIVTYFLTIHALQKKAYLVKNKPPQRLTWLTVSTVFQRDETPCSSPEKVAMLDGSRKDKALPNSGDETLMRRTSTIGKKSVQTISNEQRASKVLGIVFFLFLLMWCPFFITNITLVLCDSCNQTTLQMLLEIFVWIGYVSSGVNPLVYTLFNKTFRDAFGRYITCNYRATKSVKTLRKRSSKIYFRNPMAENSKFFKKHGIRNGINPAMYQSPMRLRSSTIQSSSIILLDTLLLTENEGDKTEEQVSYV
# UniProt Q99720, whole entry: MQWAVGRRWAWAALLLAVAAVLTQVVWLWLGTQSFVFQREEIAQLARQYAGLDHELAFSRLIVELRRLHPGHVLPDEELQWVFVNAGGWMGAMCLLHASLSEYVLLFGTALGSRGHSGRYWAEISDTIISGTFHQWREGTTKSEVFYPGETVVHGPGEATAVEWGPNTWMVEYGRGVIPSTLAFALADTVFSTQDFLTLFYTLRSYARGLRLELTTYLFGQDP
# UniProt P15823, whole entry: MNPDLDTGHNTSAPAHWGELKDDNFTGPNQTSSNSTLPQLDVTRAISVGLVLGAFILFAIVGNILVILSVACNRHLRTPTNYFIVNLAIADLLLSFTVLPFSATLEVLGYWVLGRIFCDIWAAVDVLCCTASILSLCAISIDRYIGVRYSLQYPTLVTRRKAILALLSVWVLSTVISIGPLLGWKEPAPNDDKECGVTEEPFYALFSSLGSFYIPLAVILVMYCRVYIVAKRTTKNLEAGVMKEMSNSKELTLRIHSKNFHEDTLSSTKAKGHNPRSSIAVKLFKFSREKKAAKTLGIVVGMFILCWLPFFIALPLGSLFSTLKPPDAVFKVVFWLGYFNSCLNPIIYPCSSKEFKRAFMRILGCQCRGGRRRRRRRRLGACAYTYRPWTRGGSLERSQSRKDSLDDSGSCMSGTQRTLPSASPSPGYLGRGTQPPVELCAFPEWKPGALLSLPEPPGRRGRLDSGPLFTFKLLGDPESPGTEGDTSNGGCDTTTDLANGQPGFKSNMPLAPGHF
# UniProt P23219, whole entry: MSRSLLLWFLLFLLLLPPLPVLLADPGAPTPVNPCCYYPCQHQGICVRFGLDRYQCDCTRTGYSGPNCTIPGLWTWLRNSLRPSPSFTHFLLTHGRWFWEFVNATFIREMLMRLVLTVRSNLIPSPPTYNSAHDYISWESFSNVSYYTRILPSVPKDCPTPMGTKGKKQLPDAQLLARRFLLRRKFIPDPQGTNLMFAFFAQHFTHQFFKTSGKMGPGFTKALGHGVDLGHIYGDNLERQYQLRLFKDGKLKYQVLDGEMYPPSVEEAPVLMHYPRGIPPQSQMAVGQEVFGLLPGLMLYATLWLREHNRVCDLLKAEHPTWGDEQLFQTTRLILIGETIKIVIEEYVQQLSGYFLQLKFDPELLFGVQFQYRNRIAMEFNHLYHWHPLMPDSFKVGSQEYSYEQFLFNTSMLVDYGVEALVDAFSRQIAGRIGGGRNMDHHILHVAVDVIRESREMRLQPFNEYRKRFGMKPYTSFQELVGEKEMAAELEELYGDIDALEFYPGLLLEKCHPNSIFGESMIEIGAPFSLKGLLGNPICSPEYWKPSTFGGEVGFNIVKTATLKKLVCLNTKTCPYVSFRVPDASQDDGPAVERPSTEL
# UniProt P22303: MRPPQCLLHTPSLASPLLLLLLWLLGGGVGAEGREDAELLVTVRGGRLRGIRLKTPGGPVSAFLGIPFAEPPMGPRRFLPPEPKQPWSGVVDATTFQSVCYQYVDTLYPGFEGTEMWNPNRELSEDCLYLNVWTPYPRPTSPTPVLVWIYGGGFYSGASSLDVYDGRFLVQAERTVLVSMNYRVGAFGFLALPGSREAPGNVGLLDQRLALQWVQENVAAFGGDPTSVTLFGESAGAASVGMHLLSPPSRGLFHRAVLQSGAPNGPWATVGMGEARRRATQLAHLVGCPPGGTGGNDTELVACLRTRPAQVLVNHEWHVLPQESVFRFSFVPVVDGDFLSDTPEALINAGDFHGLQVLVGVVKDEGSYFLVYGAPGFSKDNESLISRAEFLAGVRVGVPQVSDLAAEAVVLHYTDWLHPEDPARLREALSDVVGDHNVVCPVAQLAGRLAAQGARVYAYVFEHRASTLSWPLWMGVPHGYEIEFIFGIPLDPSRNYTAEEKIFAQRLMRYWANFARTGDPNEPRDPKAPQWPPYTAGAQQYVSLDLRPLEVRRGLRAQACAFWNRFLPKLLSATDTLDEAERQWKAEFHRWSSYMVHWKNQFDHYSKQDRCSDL
# UniProt P08172, whole entry: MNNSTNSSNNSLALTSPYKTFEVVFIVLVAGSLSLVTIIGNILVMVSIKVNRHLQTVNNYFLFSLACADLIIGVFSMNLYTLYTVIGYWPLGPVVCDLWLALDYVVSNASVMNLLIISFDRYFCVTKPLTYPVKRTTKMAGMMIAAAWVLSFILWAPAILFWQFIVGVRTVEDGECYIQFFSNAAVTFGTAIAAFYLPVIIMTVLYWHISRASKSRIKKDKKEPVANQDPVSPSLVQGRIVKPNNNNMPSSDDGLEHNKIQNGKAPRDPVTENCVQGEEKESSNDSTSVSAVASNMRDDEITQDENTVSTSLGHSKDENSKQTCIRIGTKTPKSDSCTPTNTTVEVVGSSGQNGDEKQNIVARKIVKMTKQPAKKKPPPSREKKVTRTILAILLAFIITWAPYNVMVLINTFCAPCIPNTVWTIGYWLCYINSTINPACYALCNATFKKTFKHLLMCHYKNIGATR
# How the values were obtained:
# [1] = biological target: Mitogen-activated protein kinase 14 (Homo sapiens, UniProt Q16539); set-up: species or system Escherichia coli;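 also: inhibition of p38alpha enzyme activity in a biochemical kinase assay, with myelin basic protein serving as substrate; in other assays of this panel Not Active means under 50% inhibition at 10 µM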
# [2] = biological target: 5-hydroxytryptamine receptor 2B (Homo sapiens, UniProt P41595); format: cell membranes, CHO-K1, Membrane; also: in other assays of this panel Not Active means under 50% inhibition at 10 µM
# [3] = biological target: Sigma non-opioid intracellular receptor 1 (Homo sapiens, UniProt Q99720); experiment: DRUGMATRIX: Sigma1 radioligand binding (ligand: [3H] Haloperidol); format: cell membranes, Jurkat, Membrane; settings: Not Active = under 50% inhibition at 10 µM
# [4] = biological target: T1, Alpha-1A adrenergic receptor (Rattus norvegicus, UniProt P43140); experiment: DRUGMATRIX: Alpha-1A adrenergic receptor radioligand binding (ligand: prazosin); format: cell membranes, Wistar, Submaxillary gland, Membrane; settings: Not Active = under 50% inhibition at 10 µM
# T1 sequence (P43140 whole entry): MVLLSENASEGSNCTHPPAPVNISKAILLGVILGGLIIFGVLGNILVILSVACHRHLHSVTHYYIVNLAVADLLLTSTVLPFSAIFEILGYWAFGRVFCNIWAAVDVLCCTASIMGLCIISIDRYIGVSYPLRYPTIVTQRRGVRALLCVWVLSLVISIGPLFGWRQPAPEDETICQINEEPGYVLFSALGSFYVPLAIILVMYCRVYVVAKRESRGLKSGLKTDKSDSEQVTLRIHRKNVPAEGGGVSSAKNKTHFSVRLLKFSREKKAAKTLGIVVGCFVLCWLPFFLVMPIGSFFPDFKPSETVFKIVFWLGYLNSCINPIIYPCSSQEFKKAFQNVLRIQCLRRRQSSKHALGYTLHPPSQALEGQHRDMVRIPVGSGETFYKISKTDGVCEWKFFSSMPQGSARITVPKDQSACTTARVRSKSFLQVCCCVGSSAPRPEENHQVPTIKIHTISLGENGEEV
# [5] = biological target: Alpha-1B adrenergic receptor (Rattus norvegicus, UniProt P15823); experiment: DRUGMATRIX: Alpha-1B adrenergic receptor radioligand binding (ligand: prazosin); format: cell membranes, Wistar, Liver, Membrane; settings: Not Active = under 50% inhibition at 10 µM
# [6] = biological target: Prostaglandin G/H synthase 1 (Homo sapiens, UniProt P23219); experiment: biochemical; format: tissue-based, Platelet;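 also: inhibition of COX-1 enzyme activity, with arachidonic acid supplied as substrate; in other assays of this panel Not Active means under 50% inhibition at 10 µM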
# [7] = biological target: Acetylcholinesterase (Homo sapiens, UniProt P22303); experiment: DRUGMATRIX: Acetylcholinesterase enzyme inhibition (substrate: acetylthiocholine); format: cell-based, HEK293; settings: Not Active = under 50% inhibition at 10 µM
# [8] = biological target: Muscarinic acetylcholine receptor M2 (Homo sapiens, UniProt P08172); format: cell membranes, CHO-K1, Membrane; also: in other assays of this panel Not Active means under 50% inhibition at 10 µM
smiles,measurement,setting,value
COc1ccccc1C(=O)N1CCC(Cc2ccccc2)CC1,IC50,[1],746 nM
CC(N)Cc1c[nH]c2ccc(OCc3cccs3)cc12 (configuration not stated) [BW-723C86],IC50,[2],81.1 nM
same,Ki,[2],51.6 nM
CN(C)CCCN1c2ccccc2Sc2ccc(Cl)cc21 [CHLORPROMAZINE],IC50,[3],451 nM
Clc1cccc(Cl)c1N=C1NCCN1 [CLONIDINE],IC50,[4],372 nM
same,Ki,[4],151 nM
same,IC50,[5],1850 nM
same,Ki,[5],1020 nM
CC(C(=O)O)c1ccc(-c2ccccc2)c(F)c1 (configuration not stated) [FLURBIPROFEN],IC50,[6],21 nM
Oc1c(Cl)cc(Cl)c(Cl)c1Cc1c(O)c(Cl)cc(Cl)c1Cl [HEXACHLOROPHENE],IC50,[7],3010 nM
CC(=O)N1CCN(c2ccc(OCC3COC(Cn4ccnc4)(c4ccc(Cl)cc4Cl)O3)cc2)CC1 (configuration not stated) [KETOCONAZOLE],IC50,[8],26300 nM
same,Ki,[8],9370 nM
Oc1ccc(/C=C/c2cc(O)cc(O)c2)cc1 [RESVERATROL],IC50,[6],625 nM
COc1cc2nc(N3CCN(C(=O)C4CCCO4)CC3)nc(N)c2cc1OC (configuration not stated) [TERAZOSIN],IC50,[4],24 nM
same,Ki,[4],9.59 nM
COC(=O)[C@@H]1[C@H]2C[C@H]3c4[nH]c5ccccc5c4CCN3C[C@@H]2CC[C@@H]1O [YOHIMBINE],IC50,[4],1240 nM
same,Ki,[4],500 nM
